Only a part is listed here, and it is no random draw. Calls of active or inactive are those of the source.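 Rule for the calls: active = mean inhibition of at least 70% across replicates, with every replicate also reaching that level; inconclusive = mean inhibition reaches 70% but some replicates fall short; inactive = mean inhibition below 70%.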
The compounds below were run against Protein S100-A4 (Homo sapiens) (UniProt P26447) (assay: human S100A4 protein-peptide interaction blockers – biochemical, fluorescence polarization, TAMRA-MyoIIA peptide, primary screen (AID 652163)). Conditions: at 10.7 µM, stronger effect = higher value.

By UniProt entry, the sequences of proteins in these tests, tags left out. Where a name states a change or a piece, a line headed by the entry shows the natural chain unless it says otherwise.
UniProt P26447: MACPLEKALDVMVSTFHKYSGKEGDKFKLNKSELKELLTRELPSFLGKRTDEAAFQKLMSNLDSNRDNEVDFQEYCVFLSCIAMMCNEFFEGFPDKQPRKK

Row | SMILES | inhibition
1 | Cc1ccc(NP(=O)(Oc2ccccc2F)Oc2ccccc2F)nc1 | inactive: -13%
2 | CN(C(=O)Cc1ccc(Cl)c(Cl)c1)[C@H]1CCCC[C@@H]1N1CCCC1 | inactive: -1.26%
3 | O=[N+]([O-])c1ncn(CCn2ncnc2[N+](=O)[O-])n1 | inactive: 4.2%
4 | CC(C)(C)C(=O)NC(Sc1ccncn1)C(Cl)(Cl)Cl (configuration not stated) | inactive: -4.11%
5 | O=C(O)CNc1ccc([As](=O)(O)O)cc1 | inactive: 0.333%
6 | O=[N+]([O-])c1cccc(NC2=NCC(CBr)S2)c1 (configuration not stated) | inactive: 0.612%
7 | COC(=O)C1(C)COP(=O)(Nc2ccccc2)OC1 (configuration not stated) | inactive: 1.77%
8 | O=P1(N(CCCl)CCCl)OCCCS1 (configuration not stated) | inactive: 6.08%
9 | O=C(Nc1cc([As](=O)(O)O)ccc1O)c1ccccc1 | inactive: -0.278%
10 | CCN(/C(=N/P(=O)(N1CCOCC1)N1CCOCC1)N1CCOCC1)c1ccc(OC)cc1 | inactive: 0.101%
11 | Nc1ccc([As](=O)(O)c2ccc(N)cc2)cc1 | inactive: -8.89%
12 | C[N+]1=C2C=CC=CC=C2SC12C([N+](=O)[O-])=CC([N+](=O)[O-])=C[C-]2[N+](=O)[O-] (configuration not stated) | inactive: -9.15%
13 | c1cc(-c2nn[nH]n2)ccc1-c1nn[nH]n1 | inactive: -4.44%
14 | CC(C)=N/N=C(\N)N[N+](=O)[O-] | inactive: -5.7%
15 | CC(C)c1nc(Nc2ccccc2)n(P(=O)(N(C)C)N(C)C)n1 | inactive: 2.09%
16 | COc1ccc(C2=NCC(CBr)S2)cc1 (configuration not stated) | inactive: -0.298%
17 | Cc1ccc(NP(=O)(Oc2ccccc2)Oc2ccccc2)nc1 | inactive: 6.01%
18 | O=[N+]([O-])c1cc([N+](=O)[O-])c(CCNc2ccccc2)c([N+](=O)[O-])c1 | inactive: -3.49%
19 | O=[As](O)(c1ccccc1)c1ccc(O)cc1 | inactive: 4.75%
20 | CC(=O)NC(SC(=S)N(C)C)C(Cl)(Cl)Cl (configuration not stated) | inactive: -0.926%
21 | O=[N+]([O-])c1ncn(CCn2cnc([N+](=O)[O-])n2)n1 | inactive: -0.0015%
22 | C/C(N)=N\P(=O)(OCc1ccccc1)OCc1ccccc1 | inactive: -2.65%
23 | Nc1ccc([As](=O)(O)c2ccc([N+](=O)[O-])cc2)cc1 | inactive: 2.7%
24 | C(Cc1nn[nH]n1)Cc1nn[nH]n1 | inactive: -7.09%
25 | O=P(Nc1ccccn1)(c1ccc(Br)cc1)c1ccc(Br)cc1 | inactive: 15.9%
26 | CN(C)C1(CNC(=O)c2ccc(Cl)c(S(N)(=O)=O)c2)CCCCC1 | inactive: 4.89%

Row | SMILES | inhibition
27 | Nc1ccc(CCCCOc2ccccc2)cc1 | inactive: -11.8%
28 | COc1ccc(N)c([N+](=O)[O-])c1[N+](=O)[O-] | inactive: 1.13%
29 | O=P(Nc1nc2ccccc2s1)(c1ccccc1)c1ccccc1 | inactive: -7.6%
30 | C[C@H]1OP(=O)(Oc2ccccc2)[C@H](O)[C@H](O)[C@H]1N=[N+]=[N-] (some centres not stated) | inactive: -3.96%
31 | O=C(OC1CN2CCC1CC2)c1ccccc1 (configuration not stated) | inactive: -1.86%
32 | Cc1ccc(OP(=O)(Nc2ccccn2)Oc2ccc(C)cc2)cc1 | inactive: 5.18%
33 | Cc1ccccc1OP(=O)(Nc1ccccn1)Oc1ccccc1C | inactive: -0.82%
34 | CC(NC(=O)COC(=O)C(O)(c1ccccc1)c1ccccc1)c1ccccc1 (configuration not stated) | inactive: -4.02%
35 | CN(C)C(=O)Oc1noc2ccccc12 | inactive: -7.35%
36 | O=c1c2cc([N+](=O)[O-])ccc2[nH]c2c([N+](=O)[O-])cc([N+](=O)[O-])cc12 | inactive: -9.82%
37 | c1ccc(-c2nn[nH]n2)c(-c2nn[nH]n2)c1 | inactive: 0.386%
38 | Cc1ccc(NP(=O)(Oc2cccc(C)c2)Oc2cccc(C)c2)nc1 | inactive: -2.65%
39 | CCNC(=S)/N=C(\N)N[N+](=O)[O-] | inactive: 2.47%
40 | O=C(NC1CCS(=O)(=O)C1)NP(=S)(Oc1ccccc1)Oc1ccccc1 (configuration not stated) | inactive: -0.957%
41 | O=P1(N(CCCl)CCCl)OCCC2CCCCN21 (configuration not stated) | inactive: -2.73%
42 | Cc1ccccc1CN(C)C(=O)COC(=O)C(O)(c1ccccc1)c1ccccc1 | inactive: -0.214%
43 | C[C@@H]1C=CCP(=O)(Oc2ccccc2)O1 (some centres not stated) | inactive: 0.3%
44 | C[C@H]1OP(=O)(Oc2ccccc2)C[C@@H]2O[C@@H]21 (some centres not stated) | inactive: -0.887%
45 | N#C/C(=C\c1ccc(N(CCBr)CCBr)cc1)C(N)=O | inactive: -3.05%
46 | CC(=O)c1ccc(N2CC2c2ccncc2)cc1 (configuration not stated) | inactive: 8.81%
47 | COC(=O)C1(C)COP(=O)(NCc2ccccc2)OC1 (configuration not stated) | inactive: -0.396%
48 | CC(=O)Nc1ccc([As](=O)(O)O)c(O)c1 | inactive: -1.05%
49 | CC(=O)Nc1ccc(Oc2c([N+](=O)[O-])cc([N+](=O)[O-])cc2[N+](=O)[O-])cc1 | inactive: 3.61%
50 | CCOc1ccc(C2=NCC(CBr)S2)cc1 (configuration not stated) | inactive: -2.52%
51 | CC(C)(C)C(=O)NC(Sc1ccccc1)C(Cl)(Cl)Cl (configuration not stated) | inactive: -4.53%
52 | CCc1cc(O)c([N+](=O)[O-])c(C)c1[N+](=O)[O-] | inactive: -20%
